Our source for the IC50 values is patent publication US8053603B2, “Tetralone-based monoamine reuptake inhibitors” (Sunovion Pharmaceuticals Inc., priority 2006, dated 2011).

Sequences of proteins named here, by UniProt entry; tags and fusion partners are left off.
UniProt P31645, whole entry: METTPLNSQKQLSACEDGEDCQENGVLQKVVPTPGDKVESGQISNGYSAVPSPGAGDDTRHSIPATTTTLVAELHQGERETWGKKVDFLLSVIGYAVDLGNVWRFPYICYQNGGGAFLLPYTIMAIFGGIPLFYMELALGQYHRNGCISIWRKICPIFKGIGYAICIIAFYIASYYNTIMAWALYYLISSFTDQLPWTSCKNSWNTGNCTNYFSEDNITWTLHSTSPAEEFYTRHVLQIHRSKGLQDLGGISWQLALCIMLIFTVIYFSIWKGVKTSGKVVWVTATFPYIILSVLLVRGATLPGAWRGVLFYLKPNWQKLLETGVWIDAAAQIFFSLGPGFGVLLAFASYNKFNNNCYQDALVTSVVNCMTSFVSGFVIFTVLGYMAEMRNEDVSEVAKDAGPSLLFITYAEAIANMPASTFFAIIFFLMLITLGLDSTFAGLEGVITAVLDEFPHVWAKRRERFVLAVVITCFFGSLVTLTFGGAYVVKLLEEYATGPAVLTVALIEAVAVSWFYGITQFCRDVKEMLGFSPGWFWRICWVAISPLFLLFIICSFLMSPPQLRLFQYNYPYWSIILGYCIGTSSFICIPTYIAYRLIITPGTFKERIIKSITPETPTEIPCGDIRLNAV
UniProt P23975, whole entry: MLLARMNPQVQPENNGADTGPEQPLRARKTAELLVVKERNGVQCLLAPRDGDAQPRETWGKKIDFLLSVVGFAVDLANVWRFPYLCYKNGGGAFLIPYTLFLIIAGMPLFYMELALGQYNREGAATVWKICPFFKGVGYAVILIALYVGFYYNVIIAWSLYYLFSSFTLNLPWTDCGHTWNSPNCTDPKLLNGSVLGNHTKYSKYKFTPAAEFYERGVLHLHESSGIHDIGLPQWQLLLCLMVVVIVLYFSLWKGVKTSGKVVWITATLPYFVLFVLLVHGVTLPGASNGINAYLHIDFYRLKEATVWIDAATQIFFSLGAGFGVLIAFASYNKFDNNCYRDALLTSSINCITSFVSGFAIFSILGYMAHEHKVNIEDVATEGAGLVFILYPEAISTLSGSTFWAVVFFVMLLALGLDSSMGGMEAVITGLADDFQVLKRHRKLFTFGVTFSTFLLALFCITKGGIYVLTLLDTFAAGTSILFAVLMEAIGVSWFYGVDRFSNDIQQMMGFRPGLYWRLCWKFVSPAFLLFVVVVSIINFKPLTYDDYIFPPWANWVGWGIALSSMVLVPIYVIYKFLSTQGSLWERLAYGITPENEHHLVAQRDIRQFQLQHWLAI
UniProt Q01959, whole entry: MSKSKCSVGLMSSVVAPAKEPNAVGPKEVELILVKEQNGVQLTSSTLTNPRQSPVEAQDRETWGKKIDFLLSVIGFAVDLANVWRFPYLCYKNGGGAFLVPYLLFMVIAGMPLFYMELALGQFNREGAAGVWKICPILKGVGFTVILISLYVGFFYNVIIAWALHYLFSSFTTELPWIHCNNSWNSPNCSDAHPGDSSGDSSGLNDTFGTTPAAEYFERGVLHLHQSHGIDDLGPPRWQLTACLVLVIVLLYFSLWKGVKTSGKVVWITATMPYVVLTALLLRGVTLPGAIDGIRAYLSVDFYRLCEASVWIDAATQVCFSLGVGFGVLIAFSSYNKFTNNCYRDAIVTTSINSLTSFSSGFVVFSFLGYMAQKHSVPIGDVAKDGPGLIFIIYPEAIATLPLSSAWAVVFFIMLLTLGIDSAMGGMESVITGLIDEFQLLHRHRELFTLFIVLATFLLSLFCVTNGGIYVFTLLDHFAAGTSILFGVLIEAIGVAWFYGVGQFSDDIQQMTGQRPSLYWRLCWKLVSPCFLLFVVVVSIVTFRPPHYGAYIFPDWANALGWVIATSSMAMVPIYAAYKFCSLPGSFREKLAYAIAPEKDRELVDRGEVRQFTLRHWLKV

Common to all, as to format: cell-based
Assay [1] deals with T1, recombinant human serotonin transporter (Homo sapiens, UniProt P31645).
T1 construct: expressed in transfected cells; host or cells: HEK-293
The experiment in a line: Serotonin functional uptake assay for human reuptake transporter.

In assay [2] the target is T2, recombinant human norepinephrine transporter (Homo sapiens, UniProt P23975).
T2 construct: expressed in transfected cells; host or cells: HEK293 or MDCK
The experiment in a line: Norepinephrine functional uptake assay for human reuptake transporter. The note with it: [3H]norepinephrine uptake, HEK293 or MDCK cells expressing human norepinephrine transporter.

For assay [3], the target named is T3, recombinant human dopamine transporter (Homo sapiens, UniProt Q01959).
T3 construct: expressed in transfected cells; host or cells: CHO-K1 or HEK293
The experiment in a line: Dopamine functional uptake assay for human reuptake transporter. The note with it: read-out: Human IC50 (nM) DAT.

The mark [4] stands for this setting: [3H]serotonin uptake, HEK-293 cells expressing human serotonin transporter, read-out: Human IC50 (nM) SERT.

Usually IC50 stands for the concentration at which inhibition is half-maximal.

Structures are written as SMILES. Where two headings read alike, the source gives them in different places.

Regarding `N[C@H]1Cc2ccccc2[C@H](c2ccc(Cl)c(Cl)c2)C1` (single isomer, unassigned) [Compound 6b, [4-(3,4-dichlorophenyl)-1,2,3,4-tetrahydro-naphthalen-2-yl]-amine], the IC50 in assay [1] (Human IC50 (nM) SERT) is 1830 nM.
On to `N[C@H]1Cc2ccccc2[C@H](c2ccc(Cl)c(Cl)c2)C1` (single isomer, unassigned) [Compound 6c, [4-(3,4-dichlorophenyl)-1,2,3,4-tetrahydro-naphthalen-2-yl]-amine], for which the 50% inhibitory concentration (IC50) in assay [1] (Human IC50 (nM) SERT) was determined as 84 nM.
As to `N[C@H]1Cc2ccccc2[C@H](c2ccc(Cl)c(Cl)c2)C1` (single isomer, unassigned) [Compound 6d, [4-(3,4-dichlorophenyl)-1,2,3,4-tetrahydro-naphthalen-2-yl]-amine], the IC50 in assay [1] (Human IC50 (nM) SERT) was found to be 108 nM.
`CN[C@H]1Cc2ccccc2[C@H](c2ccc(Cl)c(Cl)c2)C1` (single isomer, unassigned) [Compound 7b, 4-(3,4-dichlorophenyl)-N-methyl-1,2,3,4-tetrahydronaphthalen-2-amine]: the IC50 stood at 125 nM in assay [1] (setting [4]) and 117 nM in assay [2] (Human IC50 (nM) NET).
The corresponding values for `CN[C@H]1Cc2ccccc2[C@H](c2ccc(Cl)c(Cl)c2)C1` (single isomer, unassigned) [Compound 7c, 4-(3,4-dichlorophenyl)-N-methyl-1,2,3,4-tetrahydronaphthalen-2-amine] are 8 nM and 45 nM.
As for `CN[C@H]1Cc2ccccc2[C@H](c2ccc(Cl)c(Cl)c2)C1` (single isomer, unassigned) [Compound 7d, 4-(3,4-dichlorophenyl)-N-methyl-1,2,3,4-tetrahydronaphthalen-2-amine], the IC50 was determined as 107 nM in assay [1] (setting [4]) and 73 nM in assay [2] (Human IC50 (nM) NET).
Regarding `CN(C)[C@H]1Cc2ccccc2[C@H](c2ccc(Cl)c(Cl)c2)C1` (single isomer, unassigned) [Compound 8b, [4-(3,4-dichlorophenyl)-1,2,3,4-tetrahydro-naphthalen-2-yl]-dimethylamine], the IC50 in assay [1] (Human IC50 (nM) SERT) was found to be 108 nM.
Regarding `CN(C)[C@H]1Cc2ccccc2[C@H](c2ccc(Cl)c(Cl)c2)C1` (single isomer, unassigned) [Compound 8c, [4-(3,4-dichlorophenyl)-1,2,3,4-tetrahydro-naphthalen-2-yl]-dimethylamine], in assay [1] (Human IC50 (nM) SERT), the IC50 was found to be 3 nM.
`CN(C)[C@H]1Cc2ccccc2[C@H](c2ccc(Cl)c(Cl)c2)C1` (single isomer, unassigned) [Compound 8d, [4-(3,4-dichlorophenyl)-1,2,3,4-tetrahydro-naphthalen-2-yl]-dimethylamine]: the IC50 in assay [1] (Human IC50 (nM) SERT) is 20 nM.
Turning to `NC[C@@H]1Cc2ccccc2[C@H](c2ccc(Cl)c(Cl)c2)C1` (single isomer, unassigned) [Compound 14b, (4-(3,4-dichlorophenyl)-1,2,3,4-tetrahydronaphthalen-2-yl)methanamine], the concentration for half-maximal inhibition (IC50) in assay [1] (setting [4]) amounted to 19 nM.
In the case of `NC[C@@H]1Cc2ccccc2[C@H](c2ccc(Cl)c(Cl)c2)C1` (single isomer, unassigned) [Compound 14c, (4-(3,4-dichlorophenyl)-1,2,3,4-tetrahydronaphthalen-2-yl)methanamine], the IC50 in assay [1] (setting [4]) turned out to be 1 nM.
In the case of `NC[C@@H]1Cc2ccccc2[C@H](c2ccc(Cl)c(Cl)c2)C1` (single isomer, unassigned) [Compound 14d, (4-(3,4-dichlorophenyl)-1,2,3,4-tetrahydronaphthalen-2-yl)methanamine], in assay [1] (setting [4]), the IC50 was found to be 61 nM.
Consider `CNC[C@H]1Cc2ccccc2[C@H](c2ccc(Cl)c(Cl)c2)C1` (single isomer, unassigned) [Compound 15b, [4-(3,4-dichlorophenyl)-1,2,3,4-tetrahydro-naphthalen-2-ylmethyl]-methylamine], for which the IC50 in assay [1] (setting [4]) was 54 nM.
As to `CNC[C@H]1Cc2ccccc2[C@H](c2ccc(Cl)c(Cl)c2)C1` (single isomer, unassigned) [Compound 15c, [4-(3,4-dichlorophenyl)-1,2,3,4-tetrahydro-naphthalen-2-ylmethyl]-methylamine], the IC50 in assay [1] (setting [4]) came out at 23 nM.
For the molecule `CNC[C@H]1Cc2ccccc2[C@H](c2ccc(Cl)c(Cl)c2)C1` (single isomer, unassigned) [Compound 15d, [4-(3,4-dichlorophenyl)-1,2,3,4-tetrahydro-naphthalen-2-ylmethyl]-methylamine], in assay [1] (setting [4]), the IC50 was determined as 16 nM.
The same measure, in the same setting: the same measure for `CN(C)CC1Cc2ccccc2C(c2ccc(Cl)c(Cl)c2)C1` (single isomer, unassigned) [Compound 16a, [4-(3,4-dichlorophenyl)-1,2,3,4-tetrahydro-naphthalen-2-ylmethyl]-dimethylamine]: 311 nM; for `CN(C)CC1Cc2ccccc2C(c2ccc(Cl)c(Cl)c2)C1` (single isomer, unassigned) [Compound 16b, [4-(3,4-dichlorophenyl)-1,2,3,4-tetrahydro-naphthalen-2-ylmethyl]-dimethylamine]: 970 nM.
Still for that read-out and setting: the same measure for `NCCC1Cc2ccccc2C(c2ccc(Cl)c(Cl)c2)C1` (single isomer, unassigned) [Compound 25a, 2-(1,3-cis)-1-(3,4-dichlorophenyl)-(1,2,3,4-tetrahydronaphthalen-3-yl)ethanamine]: 1 nM; for `CN[C@H]1CCc2ccccc2[C@H]1c1ccc(Cl)c(Cl)c1` (single isomer, unassigned) [Compound 36a, 1-(3,4-dichlorophenyl)-N-methyl-1,2,3,4-tetrahydronaphthalen-2-amine]: 1090 nM.
`CN[C@H]1CCc2ccccc2[C@H]1c1ccc(Cl)c(Cl)c1` (single isomer, unassigned) [Compound 36b, 1-(3,4-dichlorophenyl)-N-methyl-1,2,3,4-tetrahydronaphthalen-2-amine]: the IC50 in assay [1] (setting [4]) is 2520 nM.
Take `CN[C@H]1CCc2ccccc2[C@H]1c1ccc(Cl)c(Cl)c1` (single isomer, unassigned) [Compound 36c, 1-(3,4-dichlorophenyl)-N-methyl-1,2,3,4-tetrahydronaphthalen-2-amine]: in assay [1] (setting [4]), the IC50 worked out at 26 nM.
Consider `CN[C@H]1CCc2ccccc2[C@H]1c1ccc(Cl)c(Cl)c1` (stereo in doubt) [Compound 36d, 1-(3,4-dichlorophenyl)-N-methyl-1,2,3,4-tetrahydronaphthalen-2-amine], for which the IC50 in assay [1] (setting [4]) was 868 nM.
Turning to `CN[C@H]1Cc2ccccc2[C@H](c2ccc(Cl)c(Cl)c2)C1` [Compound 7a, 4-(3,4-dichlorophenyl)-N-methyl-1,2,3,4-tetrahydronaphthalen-2-amine], the IC50 in assay [2] (read-out: Human IC50 (nM) NET) was found to be 27 nM.
`NC[C@@H]1Cc2ccccc2[C@H](c2ccc(Cl)c(Cl)c2)C1` [Compound 14a, (4-(3,4-dichlorophenyl)-1,2,3,4-tetrahydronaphthalen-2-yl)methanamine]: the results for the IC50 in assay [2] (read-out: Human IC50 (nM) NET) and in assay [3] were 28 nM and 11 nM, respectively.
